In PubChem BioAssay AID1362 (SRMLSC, 2008):
The entries are a selection whose mix differs from that of the whole data set. Activity calls are given as the source filed them. Cut-off read from the data, not from the text of the source: active = inhibition above about 58%; inactive = the rest, inconclusive results apart; tested in S. cerevisiae.

experiment: growth inhibition of WT strain, primary screen, mitochondrial fusion inhibitor project, WT and mutant strains, chemical genetic (AID 1362); conditions: mitochondrial fusion phenotypic screen, at 10 µM, hits give high values

SMILES	inhibition
CC(=O)NC(SC(=S)N(CC(C)C)CC(C)C)C(Cl)(Cl)Cl (configuration not stated)	active: 68.1%
CCC(C)N(CC(C)C)C(=S)SC(NC(C)=O)C(Cl)(Cl)Cl (configuration not stated)	active: 67.7%
